Values of other authors, collected in patent US20240050531A1, “A METHOD FOR REVERSING AGING BRAIN FUNCTIONAL DECLINE” (THE CHINESE UNIVERSITY OF HONG KONG, priority 2020, published 2024).

Target: T1, GLP-1R (Rattus norvegicus, UniProt P32301)
T1 construct: host or cells: living rats (8 weeks old), endogenous receptor
T1 sequence (P32301 22-463): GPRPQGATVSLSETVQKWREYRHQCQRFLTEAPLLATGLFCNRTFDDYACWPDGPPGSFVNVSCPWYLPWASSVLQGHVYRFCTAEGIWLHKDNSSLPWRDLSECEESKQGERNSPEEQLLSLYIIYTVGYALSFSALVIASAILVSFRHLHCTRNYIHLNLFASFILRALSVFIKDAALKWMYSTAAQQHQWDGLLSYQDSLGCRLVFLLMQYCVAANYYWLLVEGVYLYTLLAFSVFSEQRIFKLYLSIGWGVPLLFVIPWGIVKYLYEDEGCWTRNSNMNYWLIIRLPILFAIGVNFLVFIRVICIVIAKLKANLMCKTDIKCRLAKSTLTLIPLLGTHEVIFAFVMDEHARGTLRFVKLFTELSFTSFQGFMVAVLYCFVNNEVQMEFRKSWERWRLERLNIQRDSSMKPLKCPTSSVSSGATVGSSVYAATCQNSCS
Conditions: intracerebroventricular (i.c.v) administration, 8 weeks old rats

Glucagon-like peptide-1 [GLP-1]
associative and spatial learning: enhance associative and spatial learning
